# Measured affinities in a library of Ab-14 heavy chain variants

Data: MIT Lincoln Laboratory AlphaSeq set, Li et al. 2023, doi:10.1038/s41467-023-39022-2, as distributed in FLAb.

Target peptide (SARS-CoV-2 spike, HR2 region): PDVDLGDISGINAS

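The variants were designed computationally from a first round of random CDR variants and then made and measured. Their group label is 14H_En_HC (En: ensemble of fine-tuned language models; HC: hill climbing; a sequence that several methods proposed may carry one label only). The scFvs were displayed on barcoded MATa yeast, the peptide on MATalpha yeast. The frequency of each diploid, read from paired DNA barcodes, reflects how well the two displayed proteins bind. A regression on co-assayed BCL2-family reference pairs converts the normalised counts of each replicate to an apparent Kd. There are six technical replicates.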

Parent scFv Ab-14: VH joined to VL by three GGGGS repeats. Changes lie in the heavy chain CDRs alone.
VH: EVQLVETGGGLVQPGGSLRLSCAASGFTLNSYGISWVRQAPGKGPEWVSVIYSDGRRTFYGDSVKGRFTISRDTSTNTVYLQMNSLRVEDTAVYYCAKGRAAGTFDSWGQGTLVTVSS
VL: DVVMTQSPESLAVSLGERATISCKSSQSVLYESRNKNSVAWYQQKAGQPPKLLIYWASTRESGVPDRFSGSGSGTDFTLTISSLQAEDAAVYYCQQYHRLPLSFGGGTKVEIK

Each variant is given by its three heavy chain CDRs, as the data file delimits them; those of the parent are GFTLNSYGIS, VIYSDGRRTFYGDSVK, GRAAGTFDS. Values are log10 of the apparent Kd in nM; lower means stronger binding. Replicates are averaged; those with no signal do not enter the mean. Where no diploid with the target was found in that replicate, the entry reads "nd": below detection, most likely a poor binder, though not proof of it. The range of this assay differs from that of the first round, and the authors advise against merging the two.

| CDR-H1 | CDR-H2 | CDR-H3 | log10 Kd (nM) by replicate | log10 Kd (nM), mean | control signals |
|---|---|---|---|---|---|
| GFDLNEYGIS | VIYADGRRTAYADSVK | GEAAGTFDS | 0.13 / -0.18 / 0.25 / 0.37 / -0.25 / 0.02 | 0.06 | 1/18 (1.28) |
| GFDLNEYGIS | VIYADGRRTYYIDSVK | GETAGTFDV | 0.38 / 0.09 / -0.43 / -0.73 / -0.49 / -0.30 | -0.24 | 0/18 |
| GFDLDEYGIS | VIYADGRRTYYADSVK | GQNAGTFDV | -1.10 / -0.98 / -1.49 / -1.53 / -1.69 / -1.19 | -1.33 | 0/18 |
| GFDLNEYGIS | VIYADGRRTFYSDSVK | GEVAGTFVE | -0.11 / -0.30 / 0.95 / 0.49 / 1.44 / -0.34 | 0.36 | 1/18 (0.75) |
| GFNLNEYGIS | VIYADGRRTFYADSVK | GEQAGTFDI | 0.06 / -0.23 / -0.44 / -0.73 / -0.33 / 0.12 | -0.26 | 0/18 |
| GFDINEYGIS | VIYADGRRTFYADSVK | GNTAGTFDS | -0.41 / -0.63 / -0.64 / -0.69 / -0.79 / -0.17 | -0.55 | 0/18 |
| GFDLNEYGIS | VIYADGQRTFYKDSVK | GEAAGTFDQ | 1.53 / 0.64 / -0.31 / 0.31 / 1.05 / 0.55 | 0.63 | 0/18 |
| GFDLNEYGIS | VIYADGRRTFYTDNVK | GQNAGTFDE | -0.48 / -0.38 / -0.92 / -0.47 / -0.51 / -0.65 | -0.57 | 0/18 |
| GFDLNEYGIS | VIYADGRRTFYADSVK | GENAGTFDQ | -0.56 / -0.71 / -0.88 / -0.82 / -0.59 / -0.71 | -0.71 | 0/18 |
| GFDLNEYGIS | VIYADGVRTAYIDSVK | GEIAGTFDS | 0.13 / -0.53 / -0.24 / -0.46 / -0.59 / -0.21 | -0.32 | 0/18 |
| GFDLNEYGIS | VIYADGRRTAYVDSVK | GQVAGIFNV | 0.01 / 0.32 / 0.64 / 0.19 / 0.02 / 0.53 | 0.29 | 1/18 (3.21) |
| GFDLNEYGIS | VIYADGKRTFYADSVK | GQAAGTFDK | -1.04 / -1.07 / -1.10 / -0.53 / -0.77 / -1.22 | -0.95 | 0/18 |
| GFDLESYGIS | VIYADGRRTAYADKVK | GVNAGTFDI | -0.27 / 1.42 / 0.03 / -0.23 / 0.33 / 0.10 | 0.23 | 0/18 |
| GFDLNEYGIS | VIYADGIRTFYADSVK | GNAAGTFDE | -0.84 / nd / -0.69 / -2.22 / -1.55 / -0.69 | -1.20 | 0/18 |
| GFDLNEYGIS | VIYADGRRTFYSDSVK | GQSAGTFDA | 0.04 / -0.20 / -0.17 / -0.45 / -0.34 / 0.02 | -0.18 | 1/18 (1.62) |
| GFDLDEYGIS | VIYADGRRTFYQDSVK | GNVAGTFDQ | -0.45 / -0.35 / -0.96 / -0.88 / -0.40 / -0.69 | -0.62 | 0/18 |
| GFDLNEYGIS | VIYADGSRTFYADSVK | GEQAGSFDQ | nd / 0.40 / -0.18 / -0.25 / 0.52 / 0.76 | 0.25 | 0/18 |
| GFDLNEYGIS | VIYADGRRTSYIDSVK | GNVAGTFDV | nd / nd / nd / nd / nd / nd | nd | 0/18 |
| GFDLNEYGIS | VIYADGRRTFYTDSVK | GNMAGTFDV | -0.57 / -0.66 / -0.72 / -0.68 / -0.90 / -0.63 | -0.69 | 2/18 (2.19) |
| GFNLDEYGIS | VIYADGRRTFYQDSVK | GEEAGTFDF | -0.47 / -0.32 / -0.16 / -0.56 / -0.50 / -0.43 | -0.41 | 0/18 |
| GFDLDEYGIS | VIYADGQRTFYADSVK | GSNAGTFDM | -0.16 / -0.17 / 0.66 / -0.52 / -0.18 / 0.27 | -0.02 | 0/18 |
| GFDLNEYGIS | VIYADGSRTFYSDSVK | GQVAGTFDA | 0.92 / 0.29 / -0.09 / -0.64 / -0.48 / -0.27 | -0.05 | 0/18 |
| GFDLNEYGIS | VIYADGRRTFYQDSVK | GENAGTFDQ | -0.21 / 0.05 / -0.41 / -0.50 / -0.35 / -0.40 | -0.30 | 0/18 |
| GFDLNEYGIS | VIYADGQRTFYADSVK | GESAGTFDQ | 0.04 / -0.35 / -0.27 / -0.31 / -0.45 / 0.03 | -0.22 | 1/18 (1.37) |
| GFDLNEYGIS | VIYADGRRTFYSDSVK | GEAGGTFDQ | 0.28 / 0.62 / 0.71 / 0.40 / 0.52 / 0.31 | 0.47 | 0/18 |
| GFDLESYGIS | VIYADGRRTFYSDSVK | GVNAGTFDI | nd / nd / nd / nd / nd / nd | nd | 1/18 (1.09) |
| GFDLDEYGIS | VIYADGRRTSYIDSVK | GETAGTFDS | -0.07 / -0.17 / 0.63 / -0.47 / -0.14 / 0.02 | -0.03 | 0/18 |
| GFDLNEYGIS | VIYADGRRTFYTDNVK | GQNAGTFDV | -0.25 / -0.21 / -0.69 / 0.73 / 0.31 / -0.66 | -0.13 | 0/18 |
| GFDLNEYGIS | VIYADGMRTFYADSVK | GEIAGTFDQ | 0.20 / 0.24 / 0.04 / -0.25 / -0.05 / 0.01 | 0.03 | 3/18 (2.75) |
| GFSLDEYGIS | VIYADGKRTFYADDVK | GNVAGTFDV | -0.33 / -0.65 / -0.63 / -0.70 / -0.69 / -0.58 | -0.60 | 0/18 |
| GFDLDEYGIS | VIYADGRRTFYADSVK | GELAGTFDT | -0.22 / -0.33 / -0.37 / -0.78 / -0.52 / -0.44 | -0.44 | 0/18 |
| GFDLNEYGIS | VIYADGRRTFYTDSVK | GNNAGTFDV | -0.57 / -0.67 / -0.65 / -0.58 / -0.73 / -0.59 | -0.63 | 1/18 (2.37) |
| GFNLNEYGIS | VIYADGRRTAYADSVK | GQIAGTFDV | 0.99 / 2.18 / 0.15 / 0.67 / 2.12 / 0.96 | 1.18 | 0/18 |
| GFDLNEYGIS | VIYADGRRTFYADSVK | GKNAGTIDV | -0.24 / -0.58 / -0.46 / -0.39 / -0.71 / -0.26 | -0.44 | 1/18 (2.78) |
| GFDLNEYGIS | VIYADGSRTFYTDSVK | GEVAGTFDS | -0.50 / -0.42 / -0.36 / -0.78 / -0.40 / -0.32 | -0.46 | 0/18 |
| GFDLNEYGIS | VIYADGRRTAYSDSVK | GQNAGFFDS | nd / nd / nd / nd / nd / nd | nd | 1/18 (1.07) |
| GFDLNEYGIS | VIYADGRRTFYADSVK | GQVAGTFTL | 0.00 / -0.49 / -0.20 / -0.44 / -0.50 / -0.23 | -0.31 | 0/18 |
| GFDLNEYGIS | VIYADGRRTFYADNVK | GNVAGTFDI | 0.11 / -0.08 / -0.45 / -0.27 / -0.35 / 0.05 | -0.16 | 0/18 |
| GFDLNEYGIS | VIYADGVRTFYTDSVK | GNVAGTFDV | -0.93 / -0.46 / -0.75 / -0.84 / -0.77 / -0.30 | -0.67 | 1/18 (1.26) |
| GFDLNEYGIS | VIYADGMRTAYIDSVK | GEIAGTFDV | -0.01 / -0.36 / -0.45 / -0.72 / -0.08 / -0.60 | -0.37 | 0/18 |
| GFDLDEYGIS | VIYADGRRTFYQDSVK | GEAAGTFDQ | -0.21 / 0.30 / -0.19 / -0.56 / -0.16 / -0.15 | -0.16 | 0/18 |
| GFDLNEYGIS | VIYADGRRTQYIDSVK | GEQAGTFDL | 1.27 / 0.82 / 1.45 / 0.34 / 0.55 / 1.18 | 0.93 | 0/18 |
| GFDLNEYGIS | VIYADGRRTFYSDSVK | GVFAGTFDV | 0.08 / -0.32 / -0.42 / -0.20 / -0.69 / -0.08 | -0.27 | 1/18 (2.26) |

The opening 2 entries, copied out:

| CDR-H1 | CDR-H2 | CDR-H3 | log10 Kd (nM) by replicate | log10 Kd (nM), mean | control signals |
|---|---|---|---|---|---|
| GFDLNEYGIS | VIYADGRRTAYADSVK | GEAAGTFDS | 0.13 / -0.18 / 0.25 / 0.37 / -0.25 / 0.02 | 0.06 | 1/18 (1.28) |
| GFDLNEYGIS | VIYADGRRTYYIDSVK | GETAGTFDV | 0.38 / 0.09 / -0.43 / -0.73 / -0.49 / -0.30 | -0.24 | 0/18 |

Empty control strains, which show no peptide, gave a signal in 1% of pairings with all heavy chain designs; the median was 2.08 and 95% of these signals were weaker than 0.84. No background was subtracted. Also given: how often the same scFv was detected with the empty control strains, with their mean in brackets. The authors' rule: three or more of the six replicates give a measured affinity, fewer mean a poor binder.